Patent publication US10336803B2, “Insulin secreting polypeptides” (Mayo Foundation for Medical Education and Research, priority 2013, dated 2019)

Sequences of proteins named here, by UniProt entry; tags and fusion partners are left off. A change or cut given only in a name is not applied to a line headed by its entry.
UniProt P20594: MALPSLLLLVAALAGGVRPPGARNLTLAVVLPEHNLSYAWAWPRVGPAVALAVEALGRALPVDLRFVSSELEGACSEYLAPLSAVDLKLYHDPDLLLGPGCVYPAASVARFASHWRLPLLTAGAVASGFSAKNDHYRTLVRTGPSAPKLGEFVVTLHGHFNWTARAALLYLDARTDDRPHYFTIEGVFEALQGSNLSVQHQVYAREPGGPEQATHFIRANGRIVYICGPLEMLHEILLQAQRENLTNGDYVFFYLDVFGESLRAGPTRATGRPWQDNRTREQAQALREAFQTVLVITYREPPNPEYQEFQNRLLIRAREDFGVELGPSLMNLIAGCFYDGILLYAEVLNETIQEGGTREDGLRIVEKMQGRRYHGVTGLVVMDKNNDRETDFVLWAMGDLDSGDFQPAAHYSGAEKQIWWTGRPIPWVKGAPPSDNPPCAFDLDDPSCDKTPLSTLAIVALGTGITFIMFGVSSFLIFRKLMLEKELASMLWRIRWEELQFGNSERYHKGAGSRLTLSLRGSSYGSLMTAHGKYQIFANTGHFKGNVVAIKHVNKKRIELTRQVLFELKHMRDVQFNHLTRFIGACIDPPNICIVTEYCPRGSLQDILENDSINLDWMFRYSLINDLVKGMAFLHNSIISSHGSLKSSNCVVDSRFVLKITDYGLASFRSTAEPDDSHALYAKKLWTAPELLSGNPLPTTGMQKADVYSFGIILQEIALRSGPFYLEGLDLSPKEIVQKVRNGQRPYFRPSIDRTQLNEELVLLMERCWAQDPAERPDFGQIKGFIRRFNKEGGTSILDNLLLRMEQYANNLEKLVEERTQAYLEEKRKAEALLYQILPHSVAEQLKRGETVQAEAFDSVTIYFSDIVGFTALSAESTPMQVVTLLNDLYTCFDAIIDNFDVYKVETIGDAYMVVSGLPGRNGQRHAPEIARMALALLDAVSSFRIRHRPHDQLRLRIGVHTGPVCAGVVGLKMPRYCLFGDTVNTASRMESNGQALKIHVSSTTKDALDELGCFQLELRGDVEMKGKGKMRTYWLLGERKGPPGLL
UniProt P16066: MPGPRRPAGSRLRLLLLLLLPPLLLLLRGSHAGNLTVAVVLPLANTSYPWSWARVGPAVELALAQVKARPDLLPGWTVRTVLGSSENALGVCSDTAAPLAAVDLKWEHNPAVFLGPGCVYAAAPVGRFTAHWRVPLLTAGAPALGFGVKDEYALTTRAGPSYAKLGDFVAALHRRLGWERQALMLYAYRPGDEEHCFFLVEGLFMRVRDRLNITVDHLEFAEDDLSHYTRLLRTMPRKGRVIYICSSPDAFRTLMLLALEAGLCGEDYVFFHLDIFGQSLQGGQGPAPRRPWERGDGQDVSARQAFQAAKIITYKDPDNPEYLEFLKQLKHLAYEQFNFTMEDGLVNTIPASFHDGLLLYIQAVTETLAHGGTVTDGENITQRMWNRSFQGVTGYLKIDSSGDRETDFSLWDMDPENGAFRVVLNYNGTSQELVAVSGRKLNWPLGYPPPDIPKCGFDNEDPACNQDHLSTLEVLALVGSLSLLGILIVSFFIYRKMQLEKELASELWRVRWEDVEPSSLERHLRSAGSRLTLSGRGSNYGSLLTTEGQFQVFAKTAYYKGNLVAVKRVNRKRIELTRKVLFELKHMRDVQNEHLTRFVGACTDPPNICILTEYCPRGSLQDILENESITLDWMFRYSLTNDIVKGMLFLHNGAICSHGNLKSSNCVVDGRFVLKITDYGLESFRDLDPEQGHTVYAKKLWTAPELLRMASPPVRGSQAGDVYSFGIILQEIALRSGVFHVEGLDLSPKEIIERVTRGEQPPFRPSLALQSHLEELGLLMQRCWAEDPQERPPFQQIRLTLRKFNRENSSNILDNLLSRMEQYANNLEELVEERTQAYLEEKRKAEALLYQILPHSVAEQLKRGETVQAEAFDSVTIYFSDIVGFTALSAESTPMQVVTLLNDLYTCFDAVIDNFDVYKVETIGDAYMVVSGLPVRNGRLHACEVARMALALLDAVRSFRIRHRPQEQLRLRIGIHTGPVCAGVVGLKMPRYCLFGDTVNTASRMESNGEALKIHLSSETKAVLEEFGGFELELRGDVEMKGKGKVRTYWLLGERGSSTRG

Columns and labels:
normal dogs = test: Chimeric polypeptide intravenous infusion in normal dogs: blood glucose, plasma insulin, plasma cGMP; type: in vivo, dog; conditions: normal dogs (n=2), intravenous infusion 10 or 100 pmol/kg/minute for 45 minutes
[1] = target: GC-B particulate guanylate cyclase receptors (Homo sapiens, UniProt P20594); test: Cell cGMP assay in HEK293 cells stably transfected with GC-B; type: cell-based; conditions: 10^−10 M, 10^−8M, or 10^−6M polypeptide for 10 minutes (FIGS. 14, 15)
[2] = target: GC-A particulate guanylate cyclase receptors (Homo sapiens, UniProt P16066); test: Cell cGMP assay in HEK293 cells stably transfected with GC-A; type: cell-based; conditions: 10^−10 M, 10^−8M, or 10^−6M polypeptide for 10 minutes (FIGS. 14, 15)
normal rats = test: Chimeric polypeptide infusion in normal rats: blood glucose and plasma insulin; type: in vivo, rat; conditions: IV infusion 1 pmol/kg/minute for 210 minutes

## HGEGTFTSDSEAFIWLGRSPKMVQGSGCFGRK-MDRISSSSGLGCKVLRRH
Normal dogs; versus base line (FIG. 7)
  plasma insulin: increase in plasma insulin
Normal dogs; versus base line (FIG. 8)
  plasma glucose: reduction in plasma glucose
Normal dogs; versus base line (FIG. 9)
  plasma cGMP: increase
[1]
  activation of GC-B receptors (cGMP levels): but not the GC-B receptors
[2]
  activation of GC-A receptors (cGMP levels): activated the GC-A receptors
Normal rats; compared to placebo control rats (FIGS. 10, 12)
  plasma insulin: increased plasma insulin
Normal rats; compared to placebo control rats (FIGS. 11, 13)
  blood glucose: lower blood glucose

## RMDRIGLSKGCFGLKLDRIGSMSG-LGCKVLRRHHGEGTFTSDSEAFIWLGR
[1]
  activation of GC-B receptors (cGMP levels): activated both the GC-A and GC-B receptors
[2]
  activation of GC-A receptors (cGMP levels): activated both the GC-A and GC-B receptors
